Test results published in PubChem BioAssay AID743445 (Broad Institute, 2014).
Only a part is listed here, and it is no random draw. Calls of active or inactive are those of the source. Rule as the data show it: active = inhibition above about 50%; inactive = the rest.

Amino acid sequences for entries named in this document (tags omitted).
UniProt O96028, whole entry: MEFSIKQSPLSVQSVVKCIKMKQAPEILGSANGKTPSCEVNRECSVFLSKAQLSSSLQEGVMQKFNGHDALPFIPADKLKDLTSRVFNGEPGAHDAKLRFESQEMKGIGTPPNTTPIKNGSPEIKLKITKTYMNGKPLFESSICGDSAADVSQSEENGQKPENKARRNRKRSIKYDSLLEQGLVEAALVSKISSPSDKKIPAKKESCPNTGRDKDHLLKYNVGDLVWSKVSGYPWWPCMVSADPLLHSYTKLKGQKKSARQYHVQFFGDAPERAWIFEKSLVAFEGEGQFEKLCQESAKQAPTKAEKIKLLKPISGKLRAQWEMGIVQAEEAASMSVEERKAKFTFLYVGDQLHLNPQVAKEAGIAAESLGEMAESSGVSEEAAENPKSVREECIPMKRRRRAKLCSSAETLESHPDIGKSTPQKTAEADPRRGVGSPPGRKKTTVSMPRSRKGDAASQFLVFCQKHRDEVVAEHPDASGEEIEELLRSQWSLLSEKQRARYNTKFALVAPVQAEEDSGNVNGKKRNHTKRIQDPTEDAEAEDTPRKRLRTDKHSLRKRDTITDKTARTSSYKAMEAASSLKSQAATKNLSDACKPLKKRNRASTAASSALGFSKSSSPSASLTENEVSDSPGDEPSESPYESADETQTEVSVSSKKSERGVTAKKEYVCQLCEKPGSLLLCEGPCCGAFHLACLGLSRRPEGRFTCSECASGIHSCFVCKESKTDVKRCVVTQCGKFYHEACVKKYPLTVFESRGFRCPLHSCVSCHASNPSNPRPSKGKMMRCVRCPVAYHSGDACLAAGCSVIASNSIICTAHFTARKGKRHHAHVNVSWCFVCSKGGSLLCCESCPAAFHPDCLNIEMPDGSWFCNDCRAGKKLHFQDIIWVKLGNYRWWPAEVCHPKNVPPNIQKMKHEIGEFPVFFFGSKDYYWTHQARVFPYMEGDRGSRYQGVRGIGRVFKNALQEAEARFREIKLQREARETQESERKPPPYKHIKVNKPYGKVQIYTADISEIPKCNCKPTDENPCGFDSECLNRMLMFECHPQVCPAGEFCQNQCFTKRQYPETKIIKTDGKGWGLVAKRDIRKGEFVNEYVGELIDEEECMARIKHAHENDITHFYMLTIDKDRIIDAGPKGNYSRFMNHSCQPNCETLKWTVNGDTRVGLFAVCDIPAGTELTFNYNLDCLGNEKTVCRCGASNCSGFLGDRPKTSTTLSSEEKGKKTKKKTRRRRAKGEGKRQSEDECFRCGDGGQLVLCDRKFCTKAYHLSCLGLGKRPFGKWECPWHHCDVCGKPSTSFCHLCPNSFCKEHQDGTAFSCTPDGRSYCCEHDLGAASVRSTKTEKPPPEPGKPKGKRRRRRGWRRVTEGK

The molecules below were run against Histone-lysine N-methyltransferase NSD2 (Homo sapiens) (UniProt O96028) (assay: blockers of NSD2 lysine methylation activity – biochemical, AlphaScreen, single concentration, set 2, primary screen (AID 743445)). Conditions: NSD2 peptide methylation, 120 min, at 12.5 µM, stronger effect = higher value.

Compound	inhibition
COc1cc(C(=O)NCC2(N(C)C)CCCCC2)ccc1OC(F)F	inactive: 0.105%
CCOC(=O)N1CCC(Nc2cccc(C)c2)CC1	inactive: 1.01%
CCOc1ccc(C)cc1CN(CCCl)CCCl	inactive: 6.71%
CCOC(=O)N1CCC(Nc2ccc(F)cc2)CC1	inactive: 0.155%
COc1ccc(NC2CCN(CCc3ccccc3)CC2)c(OC)c1	inactive: 31.3%
O=C(NCC1(N2CCCCC2)CCCCC1)c1ccc(F)cc1	inactive: -1.26%
CCCCOc1ccc(C(=O)NCC2(N3CCOCC3)CCCCC2)cc1	inactive: -0.451%
O=P1(N(CCCl)CCCl)SCCCS1	inactive: 7.06%
O=C(NCC1(N2CCOCC2)CCCCC1)c1cc2ccccc2o1	inactive: 2.03%
Cc1cc(C)cc(N(C(=O)c2ccccc2)C2CCN(C(=O)OC(C)(C)C)CC2)c1	inactive: -2.36%
O=C(NCC1(N2CCCCC2)CCCCC1)c1ccc(Cl)nc1	inactive: 0.445%
CCOC(=O)N1CCC(Nc2ccc(OC)cc2)CC1	inactive: 5.49%
COc1ccc(Cl)cc1C(=O)NCC1(N2CCOCC2)CCCCC1	inactive: -2.25%
O=C(OC1CN2CCC1CC2)C1c2ccccc2Oc2ccccc21 (centres undefined)	inactive: -0.038%
O=C(NCC1(N2CCCCC2)CCCCC1)c1ccc(Cl)s1	inactive: 0.773%
N#CC1(Nc2ccccc2)CCN(Cc2ccccc2)CC1	inactive: -0.533%
O=C(NCC1(N2CCCCC2)CCCCC1)c1cccs1	inactive: 1.17%
O=C(NCC1(N2CCCCC2)CCCCC1)c1ccc(=O)[nH]c1	inactive: -0.98%
COc1ccc(C(=O)NCC2(N3CCCCC3)CCCCC2)c(OC)c1OC	inactive: -1.8%
CC(C)(C)OC(=O)N1CCC(N(C(=O)c2ccccc2)c2ccc(F)cc2)CC1	inactive: -3.89%
COc1ccc(C(=O)NCC2(N3CCCCC3)CCCCC2)cc1	inactive: 20.9%
Cc1cccc(NC2(C#N)CCN(Cc3ccccc3)CC2)c1	inactive: -2.85%
CSc1ccccc1C(=O)NCC1(N2CCCCC2)CCCCC1	inactive: 4.29%
O=C(NCC1(N2CCCCC2)CCCCC1)c1cncc(Br)c1	inactive: 0.072%
CN1CCC(Nc2cccc(F)c2)CC1	inactive: 12.6%

Compound	inhibition
CCCOc1ccc(C(=O)NCC2(N(C)C)CCCCC2)cc1OC	inactive: -0.342%
Cc1ccc(C(=O)NCC2(N(C)C)CCCCC2)o1	inactive: -0.239%
CN(C)c1cccc(C(=O)NCC2(N3CCCCC3)CCCCC2)c1	inactive: 0.423%
COc1ccc(CN(CCCl)CCCl)cc1Cl	inactive: 26.1%
CC(C)c1ccc(NC2CCN(C(=O)OC(C)(C)C)CC2)cc1	inactive: 6.39%
O=C(NCC1(N2CCOCC2)CCCCC1)c1cc(F)c(F)cc1Cl	inactive: -2.23%
COc1cc(OC)c(C(=O)NCC2(N(C)C)CCCCC2)cc1OC	inactive: 4.77%
O=C(NCC1(N2CCCCC2)CCCCC1)c1cccc(C(F)(F)F)c1	inactive: 2.09%
COc1ccc(NC2CCN(C(=O)OC(C)(C)C)CC2)cc1	inactive: 9.53%
CC(C)c1ccc(C(=O)NCC2(N3CCOCC3)CCCCC2)cc1	inactive: -1.38%
CN1CCN(CCOC(=O)C(O)(c2ccccc2)c2ccccc2)CC1	inactive: 2.67%
O=C(NCC1(N2CCOCC2)CCCCC1)c1cc(=O)[nH]c2ccccc12	inactive: 1.53%
COc1cc(C(=O)NCC2(N3CCCCC3)CCCCC2)ccc1OC(F)F	inactive: 0.86%
O=C(NCC1(N2CCCCC2)CCCCC1)c1cccc([N+](=O)[O-])c1	inactive: -1.62%
CSc1ccc(C(=O)NCC2(N3CCOCC3)CCCCC2)cc1	inactive: -0.654%
N#CC1(Nc2ccccc2)CCN(CCc2ccccc2)CC1	inactive: 0.401%
CCN1CCC(Nc2ccc(Cl)cc2)CC1	inactive: 3.44%
CCCN1CCC(Nc2cc(OC)cc(OC)c2)CC1	inactive: 12.4%
Cc1cc(N(CCCl)CCCl)ccc1C=O	inactive: -2.75%
c1ccc(CN2CCC(Nc3ccccc3)CC2)cc1	inactive: -6.75%
C/C(N)=N\P(=O)(Oc1ccccc1)Oc1ccccc1	inactive: -0.002%
CN(C)C1(CNC(=O)c2cccc(C#N)c2)CCCCC1	inactive: 0.575%
CC(C)(C)OC(=O)N1CCC(N(C(=O)c2ccccc2)c2ccc(Cl)cc2)CC1	inactive: -2.09%
N#Cc1ccc(C(=O)NCC2(N3CCCCC3)CCCCC2)cc1	inactive: -3.81%
N/C(=N\O)c1c(N)no[n+]1[O-]	inactive: 0.956%

Compound	inhibition
CCOC(=O)N1CCC(Nc2ccc(C)cc2)CC1	inactive: 3.21%
O=C(OC1CN2CCC1CC2)C1c2ccccc2C=Cc2ccccc21 (centres undefined)	inactive: 3.05%
O=C(NCC1(N2CCOCC2)CCCCC1)c1cc(Br)ccc1Cl	inactive: -4.74%
COc1cc(C(=O)NCC2(N3CCOCC3)CCCCC2)cc(OC)c1C	inactive: 3.26%
COc1ccc(C(=O)NCC2(N3CCOCC3)CCCCC2)cc1OC	inactive: -1.85%
NC(=O)C1(Nc2ccccc2)CCN(Cc2ccccc2)CC1	inactive: 0.133%
CCC(CO)(C(=O)OC1CN2CCC1CC2)c1ccccc1 (centres undefined)	inactive: 0.13%
COc1cccc(C(=O)N(c2cc(C)cc(C)c2)C2CCN(C(=O)OC(C)(C)C)CC2)c1	inactive: -1.71%
COc1cc(OC)cc(C(=O)NCC2(N3CCOCC3)CCCCC2)c1	inactive: -3.79%
CN1CCC(Nc2ccc(Cl)cc2)CC1	inactive: 3.23%
CN1CCC(Nc2ccc(F)c(Cl)c2)CC1	inactive: 4.19%
CCOc1ncccc1C(=O)NCC1(N2CCOCC2)CCCCC1	inactive: 0.401%
CCCOc1ccc(C(=O)NCC2(N(C)C)CCCCC2)cc1	inactive: 10.2%
O=C(O)C1(Nc2ccccc2)CCN(Cc2ccccc2)CC1	inactive: 1.12%
CC(C)(C)OC(=O)N1CCC(Nc2ccccc2)CC1	inactive: 24.4%
CCN1CCC(Nc2cccc(F)c2)CC1	inactive: 2.22%
Cc1ccccc1NC1(C#N)CCN(Cc2ccccc2)CC1	inactive: -10.7%
Cn1c(=O)[nH]cc(N(CCCl)CCCl)c1=O	inactive: 1.37%
O=C(NCC1(N2CCCCC2)CCCCC1)c1ccco1	inactive: -0.176%
COc1cc(OC)cc(C(=O)NCC2(N3CCCCC3)CCCCC2)c1	inactive: -0.78%
CC(=O)N(c1ccccc1)C1CCNCC1	inactive: -1.3%
Cc1ccc(NC2(C#N)CCN(Cc3ccccc3)CC2)cc1	inactive: -1.41%
Fc1ccccc1NC1CCN(Cc2ccccc2)CC1	inactive: 0.226%
Cc1ccc(C(=O)NCC2(N3CCCCC3)CCCCC2)o1	inactive: 5.49%
